{"sequences": {"note": "Protein sequences, listed by entry. Tags and fused reporters are not part of them.", "UniProt P08183, whole entry": "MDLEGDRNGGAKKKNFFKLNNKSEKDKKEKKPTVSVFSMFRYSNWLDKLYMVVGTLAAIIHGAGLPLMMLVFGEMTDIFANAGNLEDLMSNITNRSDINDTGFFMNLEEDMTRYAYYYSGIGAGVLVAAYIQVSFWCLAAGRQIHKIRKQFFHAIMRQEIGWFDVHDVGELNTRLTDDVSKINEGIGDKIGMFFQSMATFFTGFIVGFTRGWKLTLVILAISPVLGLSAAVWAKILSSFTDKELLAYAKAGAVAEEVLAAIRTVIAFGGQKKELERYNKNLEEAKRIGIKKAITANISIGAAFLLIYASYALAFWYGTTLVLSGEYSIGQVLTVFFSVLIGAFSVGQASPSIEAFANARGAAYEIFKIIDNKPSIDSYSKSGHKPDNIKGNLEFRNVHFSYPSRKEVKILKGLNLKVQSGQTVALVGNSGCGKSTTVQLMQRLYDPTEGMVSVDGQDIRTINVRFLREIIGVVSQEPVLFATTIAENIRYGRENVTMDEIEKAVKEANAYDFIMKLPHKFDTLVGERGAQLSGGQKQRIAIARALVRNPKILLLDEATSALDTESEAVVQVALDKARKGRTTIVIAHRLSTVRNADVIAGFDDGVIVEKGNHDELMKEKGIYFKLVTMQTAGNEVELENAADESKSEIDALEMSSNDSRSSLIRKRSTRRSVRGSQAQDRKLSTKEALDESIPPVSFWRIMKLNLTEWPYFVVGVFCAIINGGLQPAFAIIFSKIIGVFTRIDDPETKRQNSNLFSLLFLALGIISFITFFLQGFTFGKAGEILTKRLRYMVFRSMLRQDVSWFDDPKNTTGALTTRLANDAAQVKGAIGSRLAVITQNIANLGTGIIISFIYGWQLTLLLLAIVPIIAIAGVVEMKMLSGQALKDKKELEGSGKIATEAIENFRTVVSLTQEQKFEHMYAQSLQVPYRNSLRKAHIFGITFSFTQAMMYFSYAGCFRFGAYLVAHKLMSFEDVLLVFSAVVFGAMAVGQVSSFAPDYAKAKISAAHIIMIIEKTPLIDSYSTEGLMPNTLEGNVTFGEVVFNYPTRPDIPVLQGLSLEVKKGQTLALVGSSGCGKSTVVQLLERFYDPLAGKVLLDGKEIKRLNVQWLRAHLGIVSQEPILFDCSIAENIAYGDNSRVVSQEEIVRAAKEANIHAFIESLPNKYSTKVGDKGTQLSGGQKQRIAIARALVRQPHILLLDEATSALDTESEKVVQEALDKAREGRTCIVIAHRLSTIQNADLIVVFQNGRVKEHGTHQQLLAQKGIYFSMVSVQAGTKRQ"}, "source": "patent US5972598A", "about": "“Methods for preventing multidrug resistance in cancer cells” (priority 1995, dated 1999)", "target": "P-glycoprotein (Homo sapiens, UniProt P08183)"}
{"substance": "IL-2", "values": [{"measurement": "effect on P-glycoprotein activity (Rh123 accumulation)", "result": "No apparent effects on P-glycoprotein"}]}
